Source: ChEMBL document CHEMBL2429761, “Discovery of ML314, a Brain Penetrant Non-Peptidic β-Arrestin Biased Agonist of the Neurotensin NTR1 Receptor” (ACS Med Chem Lett, 2013)

Sequences of proteins named here, by UniProt entry; tags and fusion partners are left off.
UniProt P30989, whole entry: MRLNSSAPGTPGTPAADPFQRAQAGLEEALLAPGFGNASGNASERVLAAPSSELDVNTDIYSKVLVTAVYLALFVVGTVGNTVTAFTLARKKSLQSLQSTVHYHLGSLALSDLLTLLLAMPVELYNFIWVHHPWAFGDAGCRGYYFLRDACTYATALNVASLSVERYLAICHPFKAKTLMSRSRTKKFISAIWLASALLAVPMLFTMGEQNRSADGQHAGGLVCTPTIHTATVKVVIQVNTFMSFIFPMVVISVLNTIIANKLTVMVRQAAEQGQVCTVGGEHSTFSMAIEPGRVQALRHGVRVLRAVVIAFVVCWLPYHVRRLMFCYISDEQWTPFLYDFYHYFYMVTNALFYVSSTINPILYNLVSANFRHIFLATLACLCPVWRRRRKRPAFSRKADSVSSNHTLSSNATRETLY

Biological target: Neurotensin receptor type 1 (Homo sapiens, UniProt P30989)
Experiment: Antagonist activity at NTR1 (unknown origin) expressed in human U2OS cells coexpressing beta-arrestin assessed as inhibition of ML314-induced effect by GFP reporter gene assay
Assay type: cell-based

## COc1cccc(OC)c1-c1cc(C(=O)NC2(C(=O)O)C3CC4CC(C3)CC2C4)nn1-c1ccc(C(=O)N(C)CCCN(C)C)cc1C(C)C (stereo unspecified)
  inhibition: Dose-dependent effect
